# Henry's law constant values, as collected for the OPERA models

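These are experimental values that the OPERA curators gathered from public databases to train and test their QSAR models. A listed value is a point estimate from one report or more. How each value was measured is not recorded, so precision varies. A value may pool stereoisomers or salt forms, and the file does not say which form was measured. Unmarked limits or estimates from the upstream databases cannot be ruled out.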

Henry's law constant (air-water partitioning) is log10 of atm·m3/mol, nominally at 25 °C. Cells with "–" have no entry in this list.

compound | name | log Henry constant (log10 atm·m3/mol)
CCCC(C)C(=O)Nc1ccc(C)c(Cl)c1 (stereo unspecified) | Pentanochlor | -7.804
CCNc1nc(NC(C)(C)C)nc(OC)n1 | Terbumeton | -8.335
CCC(C)S(=O)(=O)O (stereo unspecified) | 2-Butanesulfonic acid | -4.677
O=C(O)C(F)(F)C(F)(F)C(F)(F)C(F)(F)F | Perfluoropentanoic acid | -4.83
Cn1cc(C(=O)Nc2ccccc2C2CC2C2CC2)c(C(F)F)n1 (stereo unspecified) | Sedaxane | -10.4
CCOC(=O)C1CC(=O)C(=C(O)C2CC2)C(=O)C1 (stereo unspecified) | Trinexapac-ethyl | -8.273
CC(C)C(O)(c1ccc(OC(F)(F)F)cc1)c1cncnc1 (stereo unspecified) | Flurprimidol | -8.568
CN1CCC[C@H]1c1cccnc1 | (-)-Nicotine | -8.051
CC1CCC(C(C)(C)O)C(O)C1 (stereo unspecified) | p-Menthane-3,8-diol | -9.368
CC(COc1ccc(C(C)(C)C)cc1)OS(=O)OCCCl (stereo unspecified) | Aramite | -5.72
CCCC(=NOCC)C1=C(O)CC(C2CCCSC2)CC1=O (stereo unspecified) | Cycloxydim | -9.218
O=C(O)C1(C(=O)Nc2ccc(Cl)cc2Cl)CC1 | Cyclanilide | -9.136
NC1=C(Cl)C(=O)c2ccccc2C1=O | 2-Amino-3-chloro-1,4-naphthoquinone | -7.521
CCON=C(OC(=O)c1ccccc1)c1c(OC)ccc(Cl)c1OC | Benzoximate | -7.269
Cc1cc(N(C)C)nc(Cl)n1 | Crimidine | -7.423
CCc1cccc(C)c1N(COC(C)C)C(=O)CCl | Propisochlor | -7.02
CCCCOCCOCCOCc1cc2c(cc1CCC)OCO2 | Piperonyl butoxide | -10.64
Cc1cc(=O)nc(C(C)C)[nH]1 | 2-Isopropyl-6-methyl-4-pyrimidone | -7.225
CC(=O)Nc1cc(NS(=O)(=O)C(F)(F)F)c(C)cc1C | Mefluidide | -6.77
CCCCCCCCCCCCCCCCCC(=O)OCCCC | Butyl octadecanoate | -1.42
C/C=C/C=C/CCCCCCCO | (8E,10E)-8,10-Dodecadien-1-ol | -6.316
CON=C(Cc1cccnc1)c1ccc(Cl)cc1Cl | Pyrifenox | -7.242
C=CCCCCCCCCCCCC | 1-Tetradecene | -0.608
CCC(C)c1cnccn1 (stereo unspecified) | 2-(1-Methylpropyl)pyrazine | -5.31
Cc1cccc(C)c1N(C(=O)CCl)C1CCOC1=O (stereo unspecified) | – | -9.415
CCOC(=O)c1nc(C(Cl)(Cl)Cl)n(-c2ccc(Cl)cc2Cl)n1 | Fenchlorazole-ethyl | -8.405
NC(=O)c1nc(-c2ccccc2)n(-c2ccc(Cl)c(COCC(F)(F)C(F)(F)F)c2)n1 | Flupoxam | -7.041
NC(N)=S | Thiourea | -8.703
CCCCCCCC/C=C\CCCCCCCCCCCC(=O)NCCCCCCCCCCCCCCCCCC | 13-Docosenamide, N-octadecyl-, (13Z)- | -3.113
CC(C)OC(=O)N[C@H](C(=O)N[C@H](C)c1nc2ccc(F)cc2s1)C(C)C | Benthiavalicarb-isopropyl | -7.065
CCOC(=O)C1=NN(c2ccc(Cl)cc2Cl)C(C)(C(=O)OCC)C1 (stereo unspecified) | Mefenpyr-diethyl | -8.599
O=C1NC(=O)c2ccccc21 | Phthalimide | -7.964
CCCN(CCC)C(=O)SCC | EPTC | -10.31
O=C(O)CCCc1c[nH]c2ccccc12 | Indole-3-butyric acid | -9.802
O=C(O)Cc1cccc2ccccc12 | 1-Naphthaleneacetic acid | -8.524
CCC(C)N(C(=O)SCc1ccccc1)C(C)CC (stereo unspecified) | Tiocarbazil | -5.783
CC[C@H]1O[C@]2(CC[C@@H]1C)C[C@@H]1C[C@@H](CC=C(C)C[C@@H](C)C=CC=C3CO[C@@H]4[C@H](O)C(C)=C[C@@H](C(=O)O1)[C@]34O)O2 | Milbemectin A4 | -6.594
C=CCCCCCCCCCCCCCCCC | 1-Octadecene | -0.608
FC(F)(F)C(=NOCC1OCCO1)c1ccc(Cl)cc1 | Fluxofenim | -5.412
CC(=O)CC(c1ccccc1)c1c(O)c2ccccc2oc1=O (stereo unspecified) | Warfarin | -7.462
CCC(Oc1ccc(F)c(C(F)(F)F)c1)C(=O)NCc1ccccc1 (stereo unspecified) | Beflubutamid | -8.964
CC(C)(SC(=O)N1CCCCC1)c1ccccc1 | Dimepiperate | -7.159
CCNc1nc(N)nc(Cl)n1 | Deisopropylatrazine | -9.824
CCCC(C)(C)C(=O)Nc1ccc(Cl)cc1 | Monalide | -7.722

The first 5 entries again:

compound | name | log Henry constant (log10 atm·m3/mol)
CCCC(C)C(=O)Nc1ccc(C)c(Cl)c1 (stereo unspecified) | Pentanochlor | -7.804
CCNc1nc(NC(C)(C)C)nc(OC)n1 | Terbumeton | -8.335
CCC(C)S(=O)(=O)O (stereo unspecified) | 2-Butanesulfonic acid | -4.677
O=C(O)C(F)(F)C(F)(F)C(F)(F)C(F)(F)F | Perfluoropentanoic acid | -4.83
Cn1cc(C(=O)Nc2ccccc2C2CC2C2CC2)c(C(F)F)n1 (stereo unspecified) | Sedaxane | -10.4

Values as listed in the OPERA 2.9 repository of K. Mansouri.